Measured values: ChEMBL document CHEMBL1143618, “Discovery of a beta-MSH-derived MC-4R selective agonist” (J Med Chem, 2005)

Chains of the proteins cited; added tags and fusions are not shown. Lines headed by an entry give the natural chain unless they say otherwise; changes in a name come on top.
UniProt P41968: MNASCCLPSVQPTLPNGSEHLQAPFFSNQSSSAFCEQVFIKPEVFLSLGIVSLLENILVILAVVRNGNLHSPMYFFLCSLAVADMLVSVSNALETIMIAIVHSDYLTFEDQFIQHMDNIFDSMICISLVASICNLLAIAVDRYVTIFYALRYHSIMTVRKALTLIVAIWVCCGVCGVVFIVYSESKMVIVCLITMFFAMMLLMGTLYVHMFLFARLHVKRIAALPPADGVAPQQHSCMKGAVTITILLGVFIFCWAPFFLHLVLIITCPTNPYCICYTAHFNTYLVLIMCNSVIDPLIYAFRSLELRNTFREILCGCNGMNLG

Target: Melanocortin receptor 3 (Homo sapiens, UniProt P41968)
Test: Percent efficacy at human Melanocortin-3 receptor for cAMP release
Type: functional

Structure (SMILES)	Relative efficacy
CC(=O)N[C@@H](CCCN=C(N)N)C(=O)N[C@H]1CSSC[C@@H](C(N)=O)NC(=O)[C@H](Cc2c[nH]c3ccccc23)NC(=O)[C@@H](CCCN=C(N)N)NC(=O)[C@@H](Cc2ccccc2)NC(=O)[C@@H](Cc2c[nH]cn2)NC(=O)[C@H](CCC(=O)O)NC1=O	84.1%
CC(=O)N[C@H](CCCN=C(N)N)C(=O)N[C@H]1CSSC[C@@H](C(N)=O)NC(=O)[C@H](Cc2c[nH]c3ccccc23)NC(=O)[C@@H](CCCN=C(N)N)NC(=O)[C@@H](Cc2ccccc2)NC(=O)[C@@H](Cc2c[nH]cn2)NC(=O)[C@H](CCC(=O)O)NC1=O	87.3%
